Here are results for eight compounds from ChEMBL document CHEMBL1133676, “Synthesis and hypolipidemic and antiplatelet activities of alpha-asarone isomers in humans (in vitro), mice (in vivo), and rats (in vivo)” (2000).

The nature of assay [1]: Ratio of LDL cholesterol level to HDL cholesterol level. It counts as functional.
Assay [2] is described as follows: Atherogenic index is expressed as (total cholesterol-LDL/HDL). Type of assay: functional.

For `C/C=C/c1c(OC)ccc(OC)c1OC.CC(C)CCC[C@@H](C)[C@H]1CC[C@H]2[C@@H]3CC=C4C[C@@H](O)CC[C@]4(C)[C@H]3CC[C@]12C`, the Ratio in assay [1] was 1.59. This compound gave an Atherogenic index in assay [2] of 2.8.

Turning to `C/C=C/c1cc(OC)cc(OC)c1OC.CC(C)CCC[C@@H](C)[C@H]1CC[C@H]2[C@@H]3CC=C4C[C@@H](O)CC[C@]4(C)[C@H]3CC[C@]12C`, in assay [1], the Ratio worked out at 0.91. This compound had an Atherogenic index in assay [2] of 1.5.

In the case of `CC(C)CCC[C@@H](C)[C@H]1CC[C@H]2[C@@H]3CC=C4C[C@@H](O)CC[C@]4(C)[C@H]3CC[C@]12C`, in assay [1], the Ratio was found to be 1.49. In assay [2], this compound came in with an Atherogenic index of 2.82.

In the case of `C/C=C/c1cc(OC)c(OC)c(OC)c1.CC(C)CCC[C@@H](C)[C@H]1CC[C@H]2[C@@H]3CC=C4C[C@@H](O)CC[C@]4(C)[C@H]3CC[C@]12C`, in assay [1], the Ratio stood at 0.44. Moreover, the Atherogenic index in assay [2] was found to be 1.06.

For the compound `C/C=C/c1c(OC)cc(OC)cc1OC.CC(C)CCC[C@@H](C)[C@H]1CC[C@H]2[C@@H]3CC=C4C[C@@H](O)CC[C@]4(C)[C@H]3CC[C@]12C`, the Ratio in assay [1] was 0.97. The Atherogenic index in assay [2] is 1.58.

As for `C/C=C/c1cc(OC)c(OC)cc1OC.CC(C)CCC[C@@H](C)[C@H]1CC[C@H]2[C@@H]3CC=C4C[C@@H](O)CC[C@]4(C)[C@H]3CC[C@]12C`, the Ratio in assay [1] was 0.54. The same compound yielded an Atherogenic index in assay [2] of 1.45.

With `C/C=C/c1ccc(OC)c(OC)c1OC.CC(C)CCC[C@@H](C)[C@H]1CC[C@H]2[C@@H]3CC=C4C[C@@H](O)CC[C@]4(C)[C@H]3CC[C@]12C`, the Ratio in assay [1] was 0.7. This compound registered an Atherogenic index in assay [2] of 1.26.

With `CC(C)CCC[C@@H](C)[C@H]1CC[C@H]2[C@@H]3CC=C4C[C@@H](O)CC[C@]4(C)[C@H]3CC[C@]12C.CCOC(=O)C(C)(C)Oc1ccc(Cl)cc1`, in assay [1], the Ratio is 2.08. The compound further had an Atherogenic index in assay [2] of 2.87.
